This is a selection; strong and weak results do not stand in their true shares. Calls of active or inactive are those of the source.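 How the source made its calls: active means percent activation above the screen-wide mean plus 3 SD (cut at about 25% in these data); inactive means the rest.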

Protein sequences, listed by entry. Tags and fused reporters are not part of them.
UniProt P55210, whole entry D23A/D198A/D206A: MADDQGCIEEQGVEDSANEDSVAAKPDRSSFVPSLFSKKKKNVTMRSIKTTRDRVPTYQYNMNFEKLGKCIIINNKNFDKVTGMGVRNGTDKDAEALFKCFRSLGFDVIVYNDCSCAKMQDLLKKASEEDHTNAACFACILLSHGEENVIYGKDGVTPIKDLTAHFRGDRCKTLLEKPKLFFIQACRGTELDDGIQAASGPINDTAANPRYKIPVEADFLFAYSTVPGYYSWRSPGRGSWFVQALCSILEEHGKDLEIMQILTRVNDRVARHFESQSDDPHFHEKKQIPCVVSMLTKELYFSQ

This experiment addresses Caspase-7 (Homo sapiens) (UniProt P55210). Briefly: activation of procaspase-7 enzyme – biochemical, absorbance, HTS, human, counter-screen for procaspase-3 activator project, primary screen (AID 463210). Particulars: recombinant procaspase-7, Ac-DEVD-pNA absorbance 405 nm; at 8.5 µM; stronger effect = higher value; D23A/D198A/D206A triple mutant, cannot self-cleave; scale: DMSO 0, 5 µM enzyme 100. In outline: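 buffer or medium = Zinc-free HEPES/NaCl buffer, pH 7.4 | material = Procaspase-7 triple mutant (PC-7 D3A) | input = 2 µM procaspase-7 mutant as dispensed | signal = Epi-absorbance of released pNA at 405 nm, two timepoints | timing = 1 h preincubation, 2 h reaction | replicates = singlicate compound testing | evaluation = % activation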
Regarding `O=C(NCC1(N2CCCCC2)CCCCC1)c1cccc(C(F)(F)F)c1`, the activation is inactive: 5.15%. As for `COc1cc(C(=O)NCC2(N3CCCCC3)CCCCC2)ccc1OC(F)F`, the figure is inactive: -13.3%; as for `O=C(NCC1(N2CCOCC2)CCCCC1)c1cc(=O)[nH]c2ccccc12`, inactive: 24.6%; as for `CN1CCN(CCOC(=O)C(O)(c2ccccc2)c2ccccc2)CC1`, inactive: 0.14%. Consider `COc1ccc(NC2CCN(C(=O)OC(C)(C)C)CC2)cc1`, for which the activation is inactive: -16%. For `O=C(NCC1(N2CCCCC2)CCCCC1)c1ccc(OC(F)F)cc1`, the activation was inactive: 2.5%. As for `CCN1CCC(Nc2ccc(Cl)cc2)CC1`, the figure is inactive: 0.02%; as for `N#CC1(Nc2ccccc2)CCN(CCc2ccccc2)CC1`, inactive: 7.07%. As for `O=C(NCC1(N2CCCCC2)CCCCC1)c1cccc([N+](=O)[O-])c1`, the figure is inactive: 3.11%; as for `O=C(NCC1(N2CCCCC2)CCCCC1)c1cncc(Br)c1`, inactive: 6.34%; as for `CN1CCC(Nc2cccc(F)c2)CC1`, inactive: 17.7%. Turning to `CC(C)c1ccc(NC2CCN(C(=O)OC(C)(C)C)CC2)cc1`, the activation is inactive: -2.28%.

`COc1ccc(CN(CCCl)CCCl)cc1Cl`: the activation is inactive: 6.2%. Next, `CN(C)c1cccc(C(=O)NCC2(N3CCCCC3)CCCCC2)c1`: inactive: -2.78%; `COc1cc(OC)c(C(=O)NCC2(N(C)C)CCCCC2)cc1OC`: inactive: 2.51%. Next, `O=C(NCC1(N2CCOCC2)CCCCC1)c1cc(F)c(F)cc1Cl`: inactive: 2.39%. Next, `O=C(NCC1(N2CCCCC2)CCCCC1)c1ccc(Cl)nc1`: inactive: 4.33%; `Cc1cc(C)cc(N(C(=O)c2ccccc2)C2CCN(C(=O)OC(C)(C)C)CC2)c1`: inactive: -6.49%; `O=C(NCC1(N2CCOCC2)CCCCC1)c1cc2ccccc2o1`: inactive: -4.31%. `O=C(OC1CN2CCC1CC2)C1c2ccccc2Oc2ccccc21` (stereo not drawn): the activation was inactive: -6.92%. As for `N#CC1(Nc2ccccc2)CCN(Cc2ccccc2)CC1`, the figure is inactive: -0.24%. Take `O=C(NCC1(N2CCCCC2)CCCCC1)c1ccc(Cl)s1`: the activation is inactive: 6.33%. Next, `COc1ccc(Cl)cc1C(=O)NCC1(N2CCOCC2)CCCCC1`: inactive: 0.94%. In the case of `CCOC(=O)N1CCC(Nc2ccc(OC)cc2)CC1`, the activation was inactive: -10.6%. Regarding `COc1ccc(C(=O)NCC2(N3CCCCC3)CCCCC2)cc1`, the activation is inactive: 0.01%. Take `COc1ccc(C(=O)NCC2(N3CCCCC3)CCCCC2)c(OC)c1OC`: the activation was inactive: 2.38%. Next, `CC(C)(C)OC(=O)N1CCC(N(C(=O)c2ccccc2)c2ccc(F)cc2)CC1`: inactive: 21.7%; `O=C(NCC1(N2CCCCC2)CCCCC1)c1ccc(=O)[nH]c1`: inactive: 9.63%; `O=C(NCC1(N2CCCCC2)CCCCC1)c1cccs1`: inactive: 8.03%. Regarding `CSc1ccccc1C(=O)NCC1(N2CCCCC2)CCCCC1`, the activation is inactive: -0.77%.

`CCOC(=O)N1CCC(Nc2cccc(C)c2)CC1`: the activation is inactive: -7.74%. In the case of `Cc1ccc(OCC(C)C)c(CN(CCCl)CCCl)c1`, the activation was inactive: -4.1%.

In the case of `CCOc1ccc(C)cc1CN(CCCl)CCCl`, the activation is inactive: -7.36%.

Take `O=C(NCC1(N2CCCCC2)CCCCC1)c1ccc(F)cc1`: the activation was inactive: -7.48%. Turning to `COc1ccc(NC2CCN(CCc3ccccc3)CC2)c(OC)c1`, the activation is inactive: -34.6%. Take `CCN1CCC(Nc2cccc(F)c2)CC1`: the activation was inactive: 0.77%. Regarding `O=C(NCC1(N2CCCCC2)CCCCC1)c1ccco1`, the activation is inactive: -2.93%. Next, `CN(C)c1ccc(C(=O)NCC2(N3CCCCC3)CCCCC2)cc1`: inactive: -7.15%; `COc1cc(OC)cc(C(=O)NCC2(N3CCCCC3)CCCCC2)c1`: inactive: 12.9%; `Cc1ccc(C(=O)NCC2(N3CCCCC3)CCCCC2)o1`: inactive: -4.54%. For the molecule `Fc1ccccc1NC1CCN(Cc2ccccc2)CC1`, the activation is inactive: 7.87%. For the molecule `COc1cc(OC)cc(C(=O)NCC2(N3CCOCC3)CCCCC2)c1`, the activation was inactive: 1.29%. Take `COc1cccc(C(=O)N(c2cc(C)cc(C)c2)C2CCN(C(=O)OC(C)(C)C)CC2)c1`: the activation is inactive: 18.5%. Next, `CCC(CO)(C(=O)OC1CN2CCC1CC2)c1ccccc1` (stereo not drawn): inactive: 5.09%; `CN1CCC(Nc2ccc(Cl)cc2)CC1`: inactive: 2.27%. As for `CCCOc1ccc(C)cc1CN(CCCl)CCCl`, the figure is inactive: -9.94%; as for `CCOc1ncccc1C(=O)NCC1(N2CCOCC2)CCCCC1`, inactive: 9.84%; as for `CN1CCC(Nc2ccc(F)c(Cl)c2)CC1`, inactive: 8.06%. Next, `CC(C)(C)OC(=O)N1CCC(Nc2ccccc2)CC1`: inactive: -3.19%. As to `O=C(O)C1(Nc2ccccc2)CCN(Cc2ccccc2)CC1`, the activation was inactive: -3.61%. With `CCCOc1ccc(C(=O)NCC2(N(C)C)CCCCC2)cc1`, the activation is inactive: -4.5%. For the molecule `CCOC(=O)N1CCC(Nc2ccc(C)cc2)CC1`, the activation was inactive: -3.11%. As for `N/C(=N\O)c1c(N)no[n+]1[O-]`, the figure is inactive: -17.8%; as for `O=C(OC1CN2CCC1CC2)C1c2ccccc2C=Cc2ccccc21` (stereo not drawn), inactive: 2.32%; as for `CCc1cc(C(=O)NCC2(N3CCCCC3)CCCCC2)sc1C`, inactive: 2.18%.

As to `COc1cc(C(=O)NCC2(N3CCOCC3)CCCCC2)cc(OC)c1C`, the activation is inactive: -1.9%. With `O=C(NCC1(N2CCOCC2)CCCCC1)c1cc(Br)ccc1Cl`, the activation is inactive: 8.87%. In the case of `COc1ccc(C(=O)NCC2(N3CCOCC3)CCCCC2)cc1OC`, the activation is inactive: -0.05%.

As for `CN(C)C1(CNC(=O)c2cccc(C#N)c2)CCCCC1`, the activation was inactive: 0.18%. Next, `c1ccc(CN2CCC(Nc3ccccc3)CC2)cc1`: inactive: 13.3%; `CCCN1CCC(Nc2cc(OC)cc(OC)c2)CC1`: inactive: 1.81%. On to `N#Cc1ccc(C(=O)NCC2(N3CCCCC3)CCCCC2)cc1`, for which the activation was inactive: -1.71%. As for `CC(C)(C)OC(=O)N1CCC(N(C(=O)c2ccccc2)c2ccc(Cl)cc2)CC1`, the figure is inactive: 8.53%.

Source of the values: PubChem BioAssay AID463210 (The Scripps Research Institute Molecular Screening Center, 2010).
